Measurements from patent publication US6844009B1, “Media in the form of complex dispersions, method for preparing same and uses” (Capsulis, priority 1999, dated 2005).

System: total anti-HSA antibodies in the serum of the mice
Assay: ELISA of total anti-HSA antibodies in serum of mice injected subcutaneously with HSA preparations
Type: in vivo, mice (female BALB/c)
Conditions: subcutaneous injection at t=0 and t=10 days, 20 μg HSA per 100 μl, serum at t=23 days, titer = serum dilution factor with mean OD 490 nm above positivity threshold
Method: The model chosen is human serum albumin (HSA) injected subcutaneously in mice. The immune response is measured by the ELISA test, which quantitatively determines the total anti-HSA antibodies in the serum of the mice.
The preparations are injected subcutaneously into groups of 4 female BALB/c mice at the rate of one injection at t=0 and then one injection at t=10 days. A control group is not injected, one group receives the aqueous dispersion and the other group receives the complex dispersion. The mice are sacrificed at t=23 days, the blood is withdrawn into heparinized tubes and the serum is isolated by centrifuging.
Quantitative determination of the total immunoglobulins is carried out by the ELISA test on these sera according to a conventional protocol using rabbit immunoglobulins against mouse immunoglobulins labeled with peroxidase. […] For each serum, the reaction is carried out with respect to a series of dilutions from 1/25 to 1/(25×2^11).
The measurement is carried out by recording the optical density (OD) at 490 nm as a function of the dilution of the serum. […]
The results are expressed as mean titer, defined as the dilution factor for the serum for which the mean OD for the four mice of the group is greater than the positivity threshold.

“HSA in PBS: human serum albumin (HSA) antigen in PBS buffer, not encapsulated” was tested, and the “Mean titre of total IgGs” value was 0.
